Literature values as cited in US8431715B2, “Thiazole compound (as PPARδ) ligand and pharmaceutical, cosmetic and health food comprised thereof” (Seoul National University Industry Foundation, priority 2007, dated 2013).

By UniProt entry, the sequences of proteins in these tests, tags left out. Where a name states a change or a piece, a line headed by the entry shows the natural chain unless it says otherwise.
UniProt Q03181, whole entry: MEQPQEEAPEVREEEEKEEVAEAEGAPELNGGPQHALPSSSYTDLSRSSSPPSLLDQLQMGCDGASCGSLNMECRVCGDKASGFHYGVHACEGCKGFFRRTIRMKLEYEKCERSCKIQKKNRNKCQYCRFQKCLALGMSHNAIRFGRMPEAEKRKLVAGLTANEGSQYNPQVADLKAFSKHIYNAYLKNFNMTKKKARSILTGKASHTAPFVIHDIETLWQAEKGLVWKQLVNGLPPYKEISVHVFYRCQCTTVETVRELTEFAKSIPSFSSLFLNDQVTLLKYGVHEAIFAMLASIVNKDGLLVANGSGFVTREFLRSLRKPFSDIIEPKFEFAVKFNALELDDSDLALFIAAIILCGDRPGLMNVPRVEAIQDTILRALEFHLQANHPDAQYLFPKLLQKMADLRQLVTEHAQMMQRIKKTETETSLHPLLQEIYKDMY

Molecular target: hPPARδ (Homo sapiens, UniProt Q03181)
Settings: literature; cited from earlier work

Compound: CCCc1c(OCCCSc2ccc(CC(=O)O)cc2Cl)ccc2c(C(F)(F)F)noc12
- selectivity to other hPPAR subtypes: barely have selectivity
